Reference: ChEMBL document CHEMBL1124836 (J Med Chem, 1990)

The chains behind the UniProt entries cited, without tags or fusion partners.
UniProt P25099, whole entry: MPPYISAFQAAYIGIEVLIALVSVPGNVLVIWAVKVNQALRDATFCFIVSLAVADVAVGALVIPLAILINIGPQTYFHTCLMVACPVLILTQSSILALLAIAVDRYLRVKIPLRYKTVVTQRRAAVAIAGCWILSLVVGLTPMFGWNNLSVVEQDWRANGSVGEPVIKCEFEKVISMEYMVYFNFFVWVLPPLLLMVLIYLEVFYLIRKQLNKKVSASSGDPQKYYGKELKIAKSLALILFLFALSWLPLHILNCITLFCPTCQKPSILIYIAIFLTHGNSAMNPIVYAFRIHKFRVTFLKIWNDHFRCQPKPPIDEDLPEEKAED

Molecular target: Adenosine receptor A1 (Rattus norvegicus, UniProt P25099)
Assay: Adenosine A1 receptor binding was measured in adenosine deaminase (ADA) pretreated rat cortical membranes using [3H]cyclohexyladenosine in the presence of 2-chloroadenosine

Ki	Structure (SMILES)
689 nM	Nc1nc(Nc2ccccc2)nc2c1ncn2[C@@H]1O[C@H](CO)[C@@H](O)[C@H]1O
1410 nM	CCNC(=O)[C@H]1O[C@@H](n2cnc3c(N)nc(NCCc4ccc(CCC(=O)O)cc4)nc32)[C@H](O)[C@@H]1O [CGS-21680]
